Marks after values point to notes of the source that are not given here.
Columns and labels:
[1] = test system: nonsensitized rats challenged with a natural mixture of HDM allergens; conditions: rat, in vivo
Der p 1 = molecular target: T1, Der p 1 (Dermatophagoides pteronyssinus, UniProt P08176); test: biochemical
T1 sequence (P08176 99-320): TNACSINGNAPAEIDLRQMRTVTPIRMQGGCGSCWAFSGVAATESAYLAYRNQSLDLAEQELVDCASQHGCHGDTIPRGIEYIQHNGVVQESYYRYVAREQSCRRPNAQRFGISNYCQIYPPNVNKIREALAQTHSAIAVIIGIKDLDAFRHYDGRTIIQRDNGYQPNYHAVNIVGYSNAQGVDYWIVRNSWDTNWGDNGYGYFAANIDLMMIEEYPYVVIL

CC(C)[C@H](NC(=O)[C@H](C)NC(=O)[C@@H](NC(=O)C1CC[N+](C)(C)CC1)C(C)(C)C)C(=O)C(=O)NCc1ccccc1.O=C[O-] [Compound 32, 4-{(S)-1-[(S)-1-((S)-1-Benzylaminooxalyl-2-methyl-propylcarbamoyl)-ethylcarbamoyl]-2,2-dimethyl-propylcarbamoyl}-1,1-dimethyl-piperidinium Formate]
reduction in innate BAL eosinophil response [1]: 58.7 ± 11.3 ^d %

CC(C)[C@H](NC(=O)[C@H](C)NC(=O)[C@H](Cc1ccccc1)NC(=O)c1ccccc1)C(=O)C(=O)NCC(=O)N1CC[N+](C)(C)CC1.O=C[O-] [Compound 52, 4-(2-{(S)-3-[(S)-2-((S)-2-Benzoylamino-3-phenyl-propionylamino)-propionylamino]-4-methyl-2-oxo-pentanoylamino}-acetyl)-1,1-dimethyl-piperazin-1-ium Formate]
duration of protection: trend of inhibition of eosinophil recruitment with increasing pre-treatment interval [1]: rise to a peak

CC(C)[C@H](NC(=O)[C@H](C)NC(=O)[C@@H](NC(=O)c1ccccc1)C(C)(C)C)C(=O)C(=O)NCc1ccccc1 [Compound 38, N-{(S)-1-[(S)-1-((S)-1-Benzylaminooxalyl-2-methyl-propylcarbamoyl)-ethylcarbamoyl]-2,2-dimethyl-propyl}-benzamide]
IC50 (Der p 1): 9 ± 1 nM
Ki (Der p 1): 4.5 nM
